Drawing on PMC3447978, “High-Throughput 1,536-Well Fluorescence Polarization Assays for α1-Acid Glycoprotein and Human Serum Albumin Binding” (PLoS ONE, 2012), this text covers Kd and IC50 for 1 molecule.

Chains of the proteins cited; added tags and fusions are not shown. Residues count along the entry.
UniProt P02768, 25-609: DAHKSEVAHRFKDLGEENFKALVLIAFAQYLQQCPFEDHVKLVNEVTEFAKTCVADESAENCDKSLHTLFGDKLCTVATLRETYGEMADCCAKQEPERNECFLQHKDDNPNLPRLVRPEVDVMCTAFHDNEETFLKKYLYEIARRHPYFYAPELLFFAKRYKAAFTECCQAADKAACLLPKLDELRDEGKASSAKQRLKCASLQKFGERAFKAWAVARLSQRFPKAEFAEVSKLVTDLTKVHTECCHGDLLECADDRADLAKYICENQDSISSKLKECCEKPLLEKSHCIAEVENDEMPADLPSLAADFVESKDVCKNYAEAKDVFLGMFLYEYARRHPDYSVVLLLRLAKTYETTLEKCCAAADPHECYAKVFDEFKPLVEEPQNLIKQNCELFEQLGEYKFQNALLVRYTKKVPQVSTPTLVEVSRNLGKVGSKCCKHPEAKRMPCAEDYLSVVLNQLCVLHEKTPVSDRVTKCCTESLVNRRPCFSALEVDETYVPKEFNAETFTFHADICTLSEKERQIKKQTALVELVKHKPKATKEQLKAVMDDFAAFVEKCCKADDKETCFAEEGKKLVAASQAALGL

pIC50, pKd: −log10 of the molar value.

The target in one assay is HSA protein-coated beads (Homo sapiens, UniProt P02768). Description: HSA protein-coated bead assay with HPLC analysis. The format is binding. To be noted: compound 50 µM.
In assay [1] the target is T1, human serum albumin (HSA) (Homo sapiens, UniProt P02768). Nature of the assay: HSA 96-well fluorescence polarization displacement assay (dansyl sarcosine probe, Sudlow Site II).
For assay [2], the target named is T1, human serum albumin (HSA). Description: HSA 1,536-well fluorescence polarization displacement assay (dansyl sarcosine probe, Sudlow Site II).

Broadly, the pKd is the Kd on a negative log10 scale, so that one unit is a factor of ten. A high value points to a small Kd. One may read the pIC50 as the IC50 on a negative log10 scale, so that one unit is a factor of ten. Low values mean a large IC50, high ones a small IC50.

As to `CN(C)CCCN1c2ccccc2Sc2ccc(Cl)cc21` [Chlorpromazine, chlorpromazine], the negative logarithm of the Kd (pKd) on HSA protein-coated beads is 4.46. In addition, the results for the pIC50 in assay [1] and in assay [2] were 3.52 and 1.99, respectively.
